The results in this text go back to PubChem BioAssay AID803 (The Scripps Research Institute Molecular Screening Center, 2007).

By UniProt entry, the sequences of proteins in these tests, tags left out.
UniProt O43603, whole entry: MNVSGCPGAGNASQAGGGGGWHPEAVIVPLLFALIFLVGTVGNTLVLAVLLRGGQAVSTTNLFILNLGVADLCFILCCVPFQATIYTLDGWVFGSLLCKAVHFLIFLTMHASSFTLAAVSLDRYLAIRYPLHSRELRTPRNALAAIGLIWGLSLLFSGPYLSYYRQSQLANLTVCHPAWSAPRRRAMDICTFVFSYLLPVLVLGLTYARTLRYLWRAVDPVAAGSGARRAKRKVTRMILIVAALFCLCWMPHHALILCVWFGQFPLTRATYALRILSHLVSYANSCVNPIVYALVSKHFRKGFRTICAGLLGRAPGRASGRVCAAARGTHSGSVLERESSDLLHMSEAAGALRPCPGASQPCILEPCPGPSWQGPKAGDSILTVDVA

The list shows a part of the results, in another mix than the full data. The source made the active and inactive calls. Rule as the data show it: active = activation above about 5% (passing the limit was not always enough); inactive = the rest.

The target in this test is Galanin receptor type 2 (Homo sapiens) (UniProt O43603). Briefly: human galanin receptor 2 activators – cell-based, primary screen (AID 803).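 Also: 0% = vehicle buffer wells and 100% = reference agonist at full effect.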 Conditions: GALR2-expressing cells, agonist activation read-out; at 5.6 µM; stronger effect = higher value.
As to `CP(=O)(Nc1ccccc1Br)Oc1ccccc1` (configuration not stated), the activation was inactive: -1.39%.

As to `CP(=S)(Nn1cnnc1)Oc1ccccc1` (configuration not stated), the activation is inactive: -0.09%.

Take `Cc1cc(SC(NC(=O)c2ccccc2)C(Cl)(Cl)Cl)nc(C(C)C)n1` (configuration not stated): the activation was inactive: -0.12%.

With `CP(=O)(Nc1ccccn1)Oc1ccc(Cl)cc1` (configuration not stated), the activation is inactive: -2.33%.

`CCOC(=O)c1ccc(NP(C)(=O)Oc2ccc(OC)cc2)cc1` (configuration not stated): the activation is inactive: 0.62%.

With `CCOP(C)(=S)SCC(=O)NC(C)C(=O)O` (configuration not stated), the activation was inactive: -0.52%.

`O=C(COc1ccccc1)OC1CN2CCC1CC2` (configuration not stated): the activation is inactive: -0.2%.

Take `CP(=O)(NC(=O)Nc1ccccc1)Oc1ccccc1` (configuration not stated): the activation was inactive: -1.17%.

For `Cc1cc(C)cc(OP(C)(=O)Nc2ccc(SC(F)(F)F)cc2)c1` (configuration not stated), the activation is inactive: -0.59%.

Turning to `COP1(=S)c2c(C)nn(CCC#N)c2N=C(c2ccc(F)cc2)N1C` (configuration not stated), the activation is inactive: -0.56%.

With `Cc1cccc(C)c1OP(C)(=O)Nc1ccc(SC(F)(F)F)cc1` (configuration not stated), the activation was inactive: 0.65%.

On to `O=C(OC1CN2CCC1CC2)C12CC3CC(CC(C3)C1)C2` (configuration not stated), for which the activation is inactive: 0.19%.

With `Cc1c2c(nc3ccccc13)SC(C(Cl)Cl)C2` (configuration not stated), the activation was inactive: -0.3%.

`CCN(CC)C(=S)SC(NC=O)C(Cl)(Cl)Cl` (configuration not stated): the activation is inactive: 0.33%.

In the case of `COc1ccc(OP(C)(=O)Nc2cccc(F)c2)cc1` (configuration not stated), the activation is inactive: -3.21%.

Consider `O=[N+]([O-])c1cc([N+](=O)[O-])c(-c2ccn[nH]2)s1`, for which the activation was inactive: -0.88%.

As for `COc1ccccc1OP(C)(=O)Nc1ccc(C)cc1` (configuration not stated), the activation was inactive: -1.1%.

Regarding `Cc1ccc(NP(C)(=O)Oc2ccccc2)c(C)c1` (configuration not stated), the activation is inactive: -1.52%.

For `CCOC(=O)c1ccc(NP(C)(=O)Oc2ccccc2)cc1` (configuration not stated), the activation is inactive: -1.22%.

Turning to `ClCCSc1nnc(-c2cccnc2)o1`, the activation was inactive: -3.61%.

Regarding `Cc1ccc2nc3c(c(C)c2c1)CC(C(Cl)Cl)S3` (configuration not stated), the activation was inactive: -1.81%.

With `CC(C)(C)c1ccc(OP(C)(=O)Nc2ccc(SC(F)(F)F)cc2)cc1` (configuration not stated), the activation was inactive: 2.18%.

On to `O=[N+]([O-])c1ccc2c(c1)nnn2O`, for which the activation was inactive: -1.98%.

`CC1=NCCc2c1[nH]c1ccccc21.O=[N+]([O-])c1cc([N+](=O)[O-])c(O)c([N+](=O)[O-])c1`: the activation is inactive: -0.5%.

For `CCOP1(=S)c2c(C)nn(CCC#N)c2N=C(c2ccc(F)cc2)N1C` (configuration not stated), the activation was inactive: -1.45%.

On to `CCOP1(=S)c2c(C)nn(CCC#N)c2N=C(c2ccccc2F)N1C` (configuration not stated), for which the activation is inactive: -1.52%.

Take `O=P(Nc1nccs1)(c1ccccc1)c1nc2ccccc2s1` (configuration not stated): the activation is inactive: -2.6%.

`CCOP(=O)(Nc1cccc2ccccc12)OCC`: the activation was inactive: 0.05%.

For `Cc1ccc(C)c(NP(C)(=O)Oc2ccccc2)c1` (configuration not stated), the activation is inactive: -0.79%.

In the case of `Cc1cc(C)cc(OP(C)(=O)Nc2ccccn2)c1` (configuration not stated), the activation was inactive: -1.38%.

Take `Cc1ccc(NCCc2c([N+](=O)[O-])cc([N+](=O)[O-])cc2[N+](=O)[O-])cc1`: the activation is inactive: -1.1%.

As for `CCOC(=O)c1ccc(NP(C)(=O)Oc2cc(C)cc(C)c2)cc1` (configuration not stated), the activation was inactive: -0.29%.

For `Cc1cccc(OCC(=O)OC2CN3CCC2CC3)c1` (configuration not stated), the activation is inactive: -2.31%.

With `Cc1cc(C)cc(OP(C)(=O)Nc2ccc(C)cc2C)c1` (configuration not stated), the activation was inactive: -2.04%.

As for `Cc1nc2ccc3ccccc3c2s1.O=[N+]([O-])c1cc([N+](=O)[O-])c(O)c([N+](=O)[O-])c1`, the activation is inactive: -2.43%.

Turning to `CC1(CBr)Cn2c(nc3ccccc3c2=O)S1` (configuration not stated), the activation was inactive: -0.39%.

With `Clc1n[nH]nc1-c1nn[nH][15n]1`, the activation is inactive: -0.42%.

For the molecule `O=P1(Nc2ccccn2)COc2ccccc2OC1`, the activation is inactive: -1.34%.

`Cc1ccc(OCC(=O)OC2CN3CCC2CC3)cc1` (configuration not stated): the activation was inactive: -1.71%.

Consider `O=P1(Nc2ccc(Br)cn2)COc2ccccc2OC1`, for which the activation was inactive: -1.68%.

For the molecule `CP(=O)(Nc1ccc(SC(F)(F)F)cc1)Oc1ccccc1` (configuration not stated), the activation is inactive: 0.17%.

As for `COc1ccccc1OP(C)(=O)Nc1c(C)cccc1C` (configuration not stated), the activation was inactive: -3.74%.

For the molecule `CN1CCCCC1COC(=O)C1(O)c2ccccc2CCc2ccccc21` (configuration not stated), the activation was inactive: 0.67%.

Consider `O=P1(Nc2ncccn2)COc2ccccc2OC1`, for which the activation was inactive: -2.46%.

Take `COc1cc(C2NCCC3(OCCO3)C2(C)C)cc(OC)c1OC.O=[N+]([O-])c1cc([N+](=O)[O-])c(O)c([N+](=O)[O-])c1` (configuration not stated): the activation was inactive: -0.82%.

As for `Cc1nn(-c2ccccc2)c2c1P(=O)(N1CCOCC1)N(C)C(c1ccccc1)=N2` (configuration not stated), the activation is inactive: 0.79%.

For `C(Cc1nn[nH]n1)Cc1nn[nH]n1`, the activation is inactive: -0.5%.

As to `O=C(OC1CN2CCC1CC2)c1cccc(Cl)c1` (configuration not stated), the activation is inactive: -2.44%.

Turning to `CC(=O)NC(SC(=S)N(C)C)C(Cl)(Cl)Cl` (configuration not stated), the activation was inactive: -3.17%.

Take `CN(C)CCOC(=O)C(O)(c1ccccc1)C1CCCCC1` (configuration not stated): the activation was inactive: -2.3%.

For the molecule `COc1ccc(OP(C)(=O)Nc2cccc(Br)c2)cc1` (configuration not stated), the activation is inactive: -2.23%.

For `Cc1ccccc1NP(C)(=O)Nc1ccccc1C`, the activation is inactive: -1.15%.

`CP(=O)(Nc1ccc2c(c1)OCCO2)Oc1ccccc1` (configuration not stated): the activation is inactive: -0.01%.

With `CCOP(C)(=S)SCC(=O)NC(C)(CC)C(=O)O` (configuration not stated), the activation was inactive: -0.93%.

`c1nnnn1CCn1cnnn1`: the activation was inactive: -2.58%.

Consider `CC(C)C(=O)NC(Sc1ccccc1)C(Cl)(Cl)Cl` (configuration not stated), for which the activation was inactive: -1.92%.

As to `O=P(Nc1nccs1)(c1ccccc1)c1ccccc1`, the activation is inactive: 0.76%.

As for `O=C(OCCN1CCN(CCOCc2ccccc2)CC1)C(O)(c1ccccc1)c1ccccc1`, the activation is inactive: -1.21%.

Turning to `CP(=O)(Nc1ccccc1F)Oc1ccccc1` (configuration not stated), the activation was inactive: -0.96%.

For the molecule `CC(C)c1ccc(OP(C)(=O)Nc2ccc(SC(F)(F)F)cc2)cc1` (configuration not stated), the activation was inactive: -1.01%.

As for `O=P1(Nc2nc3ccc(Cl)cc3s2)COc2ccccc2O1` (configuration not stated), the activation is inactive: -0.32%.

As to `CP(=O)(Nc1ccccc1)Oc1ccc(F)cc1` (configuration not stated), the activation is inactive: -2.03%.

In the case of `COC(=O)c1cc2c(s1)N=C(c1ccccc1)N(C)P2(=O)N1CCOCC1` (configuration not stated), the activation was inactive: -1.06%.

For the molecule `CC(=O)NC(SC(=S)N(CC(C)C)CC(C)C)C(Cl)(Cl)Cl` (configuration not stated), the activation is inactive: -2.54%.

As to `CCN(CC)CCCOC(=O)C(O)(c1ccccc1)C1CCCCC1` (configuration not stated), the activation is inactive: -1.8%.

Take `CCC(=O)N1C2C3N(C(=O)CC)C1C1N(C(=O)CC)C(C(N1C(=O)CC)N3C(=O)CC)N2C(=O)CC`: the activation was inactive: -0.22%.

As for `CCOC(=O)c1ccc(NP(C)(=O)Oc2ccc(F)cc2)cc1` (configuration not stated), the activation is inactive: -2.62%.

On to `CCOC(=O)NC(Sc1ccccc1)C(Cl)(Cl)Cl` (configuration not stated), for which the activation is inactive: -2.41%.

Turning to `CCN(N=Nc1nonc1N)c1nonc1N`, the activation is inactive: -0.33%.

Take `Cc1nc2ccc3ccccc3c2o1.O=[N+]([O-])c1cc([N+](=O)[O-])c(O)c([N+](=O)[O-])c1`: the activation was inactive: -3.87%.

Take `Cc1cc(SC(NC(=O)c2ccc(F)cc2)C(Cl)(Cl)Cl)ncn1` (configuration not stated): the activation is inactive: 0.36%.

Consider `CCOP(=O)(Nc1ccccc1)OCC`, for which the activation was inactive: -1.35%.

Take `COc1ccccc1OP(C)(=O)Nc1ccc(C)c(C)c1` (configuration not stated): the activation is inactive: -0.46%.

Take `COc1ccc(OP(C)(=O)Nc2ccccc2Br)cc1` (configuration not stated): the activation was inactive: -0.49%.

On to `CP(=O)(Nc1ccccn1)Oc1ccccc1` (configuration not stated), for which the activation is inactive: -0.18%.

Turning to `COc1ccccc1OP(C)(=O)Nc1ccc(C)cc1C` (configuration not stated), the activation was inactive: -1.92%.

Consider `CCc1ccc(OP(C)(=O)O)cc1`, for which the activation is inactive: -2.36%.

For the molecule `Cc1c(NP(C)(=O)Oc2ccc(C(C)C)cc2)c(=O)n(-c2ccccc2)n1C` (configuration not stated), the activation is inactive: -2.27%.

`CC(C)CC(=O)NC(Sc1ccc(Cl)cc1)C(Cl)(Cl)Cl` (configuration not stated): the activation was inactive: -1.86%.

Regarding `O=C(NC(Sc1ccncn1)C(Cl)(Cl)Cl)c1ccccc1` (configuration not stated), the activation is inactive: 1.92%.

Turning to `Cc1c2non([O-])c-2c(C)[n+](=O)[n+]1[O-]`, the activation was inactive: -0.9%.

Regarding `COc1ccc(OP(C)(=O)Nc2ccccn2)cc1` (configuration not stated), the activation is inactive: -0.41%.

Take `CN1CCCC(OC(=O)C(c2ccccc2)c2ccccc2)C1` (configuration not stated): the activation was inactive: 1.29%.

For the molecule `CN(C)CCOC(=O)C(O)(c1ccccc1)C1CCCC1` (configuration not stated), the activation is inactive: -0.95%.

In the case of `CN(C)C(=O)OCCc1n(C)cc[n+]1C`, the activation is inactive: -0.46%.

Regarding `CC1CCN(C(=O)Oc2c(Cl)cc(Cl)c3cccnc23)CC1`, the activation was inactive: -0.6%.

Regarding `CC(C)(C)c1ccc(OP(C)(=O)O)cc1`, the activation was inactive: -2.54%.

On to `CP(=O)(Nc1ccc(Cl)cc1)Oc1ccc(F)cc1` (configuration not stated), for which the activation is inactive: -1.4%.

As for `O=[N+]([O-])c1cccc2n[nH]nc12`, the activation was inactive: -0.49%.

Take `CC(=O)N1C2C3N(C(C)=O)C1C1N(C(C)=O)C(C(N1C(C)=O)N3C(C)=O)N2C(C)=O`: the activation was inactive: -1.46%.

As for `COc1ccccc1OP(C)(=O)Nc1c(C)n(C)n(-c2ccccc2)c1=O` (configuration not stated), the activation was inactive: -1.59%.

For the molecule `CP(=O)(Oc1ccccc1)N1CCOC1=O` (configuration not stated), the activation was inactive: -2.29%.

For the molecule `CCc1nc2c(n1)c1c(non1O)c1c2no[n+]1[O-]`, the activation was inactive: -4.21%.

`CCN(CC)CC(O)COC(=O)C(O)(c1ccccc1)C1CCCCC1` (configuration not stated): the activation was inactive: 0.85%.

With `COc1ccc(OP(C)(=O)Nc2ccc(Br)cc2)cc1` (configuration not stated), the activation was inactive: 0.26%.

Take `CCOC(=O)c1ccc(NP(C)(=O)Oc2ccc(Cl)cc2)cc1` (configuration not stated): the activation is inactive: -2.43%.

As to `CP(=O)(OC12CC3CC(CC(C3)C1)C2)OC12CC3CC(CC(C3)C1)C2`, the activation is inactive: -0.29%.
